From ChEMBL document CHEMBL1123455, “Conformational effects on the activity of drugs. 11. Stereostructural models for the direct activation of the alpha- and beta-adrenergic receptor” (J Med Chem, 1986)

By UniProt entry, the sequences of proteins in these tests, tags left out. Where a name states a change or a piece, a line headed by the entry shows the natural chain unless it says otherwise.
UniProt P15823: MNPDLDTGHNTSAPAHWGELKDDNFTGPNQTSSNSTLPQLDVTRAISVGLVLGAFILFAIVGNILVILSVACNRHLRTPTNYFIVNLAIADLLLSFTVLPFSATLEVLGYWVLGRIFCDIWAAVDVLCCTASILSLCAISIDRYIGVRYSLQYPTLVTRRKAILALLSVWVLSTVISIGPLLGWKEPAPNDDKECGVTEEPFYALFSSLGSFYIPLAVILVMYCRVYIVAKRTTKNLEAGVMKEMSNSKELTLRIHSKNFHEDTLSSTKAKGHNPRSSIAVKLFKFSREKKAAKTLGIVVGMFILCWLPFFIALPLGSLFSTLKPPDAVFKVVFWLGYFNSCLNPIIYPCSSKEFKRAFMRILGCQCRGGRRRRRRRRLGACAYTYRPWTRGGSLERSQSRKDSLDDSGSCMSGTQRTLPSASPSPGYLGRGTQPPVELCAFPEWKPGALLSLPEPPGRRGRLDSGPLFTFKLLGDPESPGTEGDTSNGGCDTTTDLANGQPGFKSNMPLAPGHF
UniProt P23944: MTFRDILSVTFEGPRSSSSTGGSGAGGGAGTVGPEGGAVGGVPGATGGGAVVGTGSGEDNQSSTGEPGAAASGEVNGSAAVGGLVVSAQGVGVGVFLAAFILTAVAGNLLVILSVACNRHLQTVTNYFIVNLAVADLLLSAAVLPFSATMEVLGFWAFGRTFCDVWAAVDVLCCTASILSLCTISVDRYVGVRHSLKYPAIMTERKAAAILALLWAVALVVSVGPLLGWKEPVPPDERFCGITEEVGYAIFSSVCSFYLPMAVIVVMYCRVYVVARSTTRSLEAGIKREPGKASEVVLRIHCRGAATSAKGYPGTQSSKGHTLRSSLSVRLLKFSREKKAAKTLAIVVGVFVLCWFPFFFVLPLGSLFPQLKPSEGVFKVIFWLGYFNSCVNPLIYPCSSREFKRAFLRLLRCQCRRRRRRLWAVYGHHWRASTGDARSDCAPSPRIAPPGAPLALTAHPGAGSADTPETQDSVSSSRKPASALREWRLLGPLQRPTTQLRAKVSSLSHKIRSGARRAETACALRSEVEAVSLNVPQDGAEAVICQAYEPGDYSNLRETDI
UniProt P43140: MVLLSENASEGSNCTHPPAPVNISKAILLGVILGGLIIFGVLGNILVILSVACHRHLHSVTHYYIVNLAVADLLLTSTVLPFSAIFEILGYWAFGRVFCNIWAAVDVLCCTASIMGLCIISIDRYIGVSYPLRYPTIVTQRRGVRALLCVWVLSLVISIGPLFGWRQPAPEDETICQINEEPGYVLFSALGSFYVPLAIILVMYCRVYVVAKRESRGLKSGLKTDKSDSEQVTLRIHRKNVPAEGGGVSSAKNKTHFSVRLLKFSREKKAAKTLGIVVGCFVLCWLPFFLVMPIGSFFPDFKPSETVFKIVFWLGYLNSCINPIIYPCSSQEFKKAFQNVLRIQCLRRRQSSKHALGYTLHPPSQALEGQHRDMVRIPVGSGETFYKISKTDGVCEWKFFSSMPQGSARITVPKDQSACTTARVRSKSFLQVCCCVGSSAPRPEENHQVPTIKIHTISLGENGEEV
UniProt P22086: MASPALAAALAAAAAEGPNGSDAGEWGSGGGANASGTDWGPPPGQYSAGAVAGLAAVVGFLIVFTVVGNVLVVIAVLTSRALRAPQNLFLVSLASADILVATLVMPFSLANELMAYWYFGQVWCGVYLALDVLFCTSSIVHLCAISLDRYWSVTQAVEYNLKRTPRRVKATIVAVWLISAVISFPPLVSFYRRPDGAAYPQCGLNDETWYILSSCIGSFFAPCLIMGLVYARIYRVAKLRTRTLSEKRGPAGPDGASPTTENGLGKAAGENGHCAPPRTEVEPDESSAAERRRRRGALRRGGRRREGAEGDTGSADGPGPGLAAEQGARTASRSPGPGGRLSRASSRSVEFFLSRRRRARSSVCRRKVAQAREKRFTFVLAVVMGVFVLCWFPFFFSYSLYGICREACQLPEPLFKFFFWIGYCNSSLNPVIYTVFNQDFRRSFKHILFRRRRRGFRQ
UniProt P19328: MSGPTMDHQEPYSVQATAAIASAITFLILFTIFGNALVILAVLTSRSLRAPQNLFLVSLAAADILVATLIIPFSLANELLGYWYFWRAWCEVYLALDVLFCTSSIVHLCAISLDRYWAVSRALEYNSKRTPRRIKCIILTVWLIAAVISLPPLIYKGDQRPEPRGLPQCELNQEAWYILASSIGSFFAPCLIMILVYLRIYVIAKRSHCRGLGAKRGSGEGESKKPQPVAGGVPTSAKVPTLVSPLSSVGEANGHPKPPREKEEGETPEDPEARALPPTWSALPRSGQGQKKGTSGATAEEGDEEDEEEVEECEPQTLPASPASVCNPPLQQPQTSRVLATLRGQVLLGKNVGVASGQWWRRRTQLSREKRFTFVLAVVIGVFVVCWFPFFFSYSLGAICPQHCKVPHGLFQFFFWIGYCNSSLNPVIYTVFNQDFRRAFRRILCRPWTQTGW
UniProt P22909: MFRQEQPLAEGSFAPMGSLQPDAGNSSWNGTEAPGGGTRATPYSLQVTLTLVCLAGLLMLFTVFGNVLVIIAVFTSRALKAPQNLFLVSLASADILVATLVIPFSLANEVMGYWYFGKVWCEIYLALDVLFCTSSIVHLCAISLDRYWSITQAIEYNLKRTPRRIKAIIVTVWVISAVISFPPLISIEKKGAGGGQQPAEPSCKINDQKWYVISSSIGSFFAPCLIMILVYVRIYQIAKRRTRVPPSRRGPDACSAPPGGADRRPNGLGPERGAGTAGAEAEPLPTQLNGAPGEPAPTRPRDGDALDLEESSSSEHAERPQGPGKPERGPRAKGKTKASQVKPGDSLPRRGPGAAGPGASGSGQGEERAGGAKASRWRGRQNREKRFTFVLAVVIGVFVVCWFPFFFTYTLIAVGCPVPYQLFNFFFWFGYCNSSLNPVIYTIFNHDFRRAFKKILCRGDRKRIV
UniProt P08588, whole entry, looked up: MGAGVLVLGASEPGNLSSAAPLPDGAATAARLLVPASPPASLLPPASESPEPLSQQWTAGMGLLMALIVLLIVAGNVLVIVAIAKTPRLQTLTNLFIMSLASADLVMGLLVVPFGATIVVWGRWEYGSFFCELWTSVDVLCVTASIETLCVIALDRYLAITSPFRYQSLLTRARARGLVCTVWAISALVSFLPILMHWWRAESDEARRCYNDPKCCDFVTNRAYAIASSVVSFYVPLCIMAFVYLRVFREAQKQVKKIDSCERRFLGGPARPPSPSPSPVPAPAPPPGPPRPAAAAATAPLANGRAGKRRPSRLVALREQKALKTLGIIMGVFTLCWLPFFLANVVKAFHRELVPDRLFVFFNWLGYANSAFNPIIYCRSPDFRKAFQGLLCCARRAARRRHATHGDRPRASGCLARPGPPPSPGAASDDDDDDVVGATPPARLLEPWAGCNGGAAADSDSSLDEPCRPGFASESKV
UniProt P13945: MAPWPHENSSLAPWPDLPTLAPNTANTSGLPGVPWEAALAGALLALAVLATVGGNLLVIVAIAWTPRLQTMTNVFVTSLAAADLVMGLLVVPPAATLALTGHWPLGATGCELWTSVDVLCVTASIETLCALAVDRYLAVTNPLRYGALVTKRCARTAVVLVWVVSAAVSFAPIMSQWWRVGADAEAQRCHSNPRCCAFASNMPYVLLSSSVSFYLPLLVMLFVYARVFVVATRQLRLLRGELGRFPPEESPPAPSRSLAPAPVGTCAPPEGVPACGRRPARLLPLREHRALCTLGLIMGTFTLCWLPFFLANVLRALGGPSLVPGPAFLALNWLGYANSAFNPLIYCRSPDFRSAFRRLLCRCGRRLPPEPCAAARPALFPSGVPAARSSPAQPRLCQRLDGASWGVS

Columns and labels:
[1] = target: T1, Adrenergic receptor alpha (Rattus norvegicus) (UniProt P15823+P23944+P43140+P22086+P19328+P22909); conditions: Artery
[2] = target: T2, Adrenergic receptor beta (Homo sapiens) (UniProt P08588+P07550+P13945); conditions: Cavia porcellus
[3] = target: T1, Adrenergic receptor alpha (Rattus norvegicus); conditions: Vas deferens
[4] = target: T2, Adrenergic receptor beta (Homo sapiens); conditions: Cavia porcellus; remark: listed apart in the source

Row | SMILES | pD2 [1] | pD2 [2] | pD2 [3] | pD2 [4]
1 | Oc1ccc(C2CNCCO2)cc1O (stereo not drawn) | 5.82 | 5.31 | 4.75 | 4.76
2 | Oc1ccc(C2(O)CCCNC2)cc1O (stereo not drawn) | 4.01 | 6.75 | 4.53 | 4.2
